Most compounds without a hit are left out; they make up all but 2.1% or so of the library.
PGC1a acetyl inh – PGC1a acetylation modulation, inhibitor mode; U2OS PGC1a acetylation, AlphaScreen anti-acetyl-lysine; with virally co-expressed GCN5 acetyltransferase; inhibition, % at 15.6 µM; hit rate 0.17% among 350,000;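 active = every replicate shows inhibition of at least 40%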
MITF TRPM1 HTS – activators of MITF-driven TRPM1 promoter activity in SK-MEL-5 cells | activation, % at 12.5 µM | hit rate 0.75% among 300,000 | SK-MEL-5 TRPM1-promoter luciferase, 24 h; % of positive control, neutral wells = 0;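 active = mean activation of at least 80% with every replicate also reaching 80%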
Wnt act – Wnt/beta-catenin pathway activation | Wnt/beta-catenin reporter cell assay, activator, plate reader | activation, % at 9.35 µM | hit rate 1.2% among 300,000 | AID 743398; in the data active = activation above about 30%, passing the limit was not always enough
miR-122 sensor – miR-122 inhibition in Huh7 cells; Huh7 miR-122 Renilla luciferase sensor, 48 h; neutral wells = 0, positive control = 100; hit rate 0.3% among 340,000; activation (reporter increase), % at 12.5 µM;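 active = mean replicate activation score at least 90 and every replicate individually at or above 90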;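 also: higher luciferase means less miR-122 activity so hits act as miR-122 inhibitors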
MITF TRPM1 inh – MITF TRPM1 promoter inhibition in SK-MEL-5 cells; SK-MEL-5 TRPM1 promoter luciferase, 24 h; hit rate 0.83% among 330,000; inhibition, % at 12.5 µM;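 active = mean inhibition across replicates of 60% or more, whatever share of single replicates reaches that level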
UUG fidelity – modulators of start codon recognition fidelity in yeast; S. cerevisiae UUG-firefly luciferase reporter, luminescence/redox ratio; activity score, % at 18.7 µM; hit rate 0.13% among 350,000; AID 602363;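 active = replicate mean at a twofold rise or more, about +100% in these data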;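 note: firefly luciferase made from a UUG start codon reports start codon fidelity; reporter light over untreated wells divided by growth signal over untreated wells; some hits fall short of that in this replicate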
A number is an active result; . = inactive; / = not tested or not shown; [ ] = remark or other dose.

SMILES | PGC1a acetyl inh | MITF TRPM1 HTS | Wnt act | miR-122 sensor | MITF TRPM1 inh | UUG fidelity
CCC1(O)C(=O)OCc2c1cc1n(c2=O)Cc2cc3cc(O)ccc3nc2-1 (stereo not given) | . | . | . | . | 70 | .
C[C@H]1CN([C@@H](C)CO)C(=O)Cc2cc(NC(=O)Nc3cccc4ccccc34)ccc2O[C@H]1CN(C)Cc1ccccc1 | / | / | / | . | / | .
Cc1oc(C(=O)O)cc1COc1ccccc1Cl | . | . | 59 | . | . | .
CCCc1nc2oc3c(NCCN(C)C)ncnc3c2c2c1CCCC2 | . | / | / | . | 76 | .
CCCc1nc2oc3c(NCCCN(C)C)ncnc3c2c2c1CCCC2 | . | / | . | . | 78 | .
CCCc1nc2oc3c(Cl)ncnc3c2c2c1CCCC2 | . | / | . | . | . | .
CC(C)Cc1nc2oc3c(NCC(C)O)ncnc3c2c2c1CCCC2 (stereo not given) | . | . | . | . | . | .
C[C@H]1CN([C@@H](C)CO)C(=O)Cc2cc(NC(=O)Nc3ccc(F)cc3)ccc2O[C@@H]1CN(C)C(=O)Nc1ccc2c(c1)OCO2 | . | / | / | . | / | .
COC(=O)c1ccc(-n2c(C)cc(C(=O)CCl)c2C)cc1 | . | . | . | . | 87 | .
CCOc1ccc(-n2c(C)cc(C(=O)CCl)c2C)cc1 | . | . | . | . | 69 | .
CCOC(=O)c1cc(C)n(-c2ccc(Cl)cc2)c1C | / | . | . | / | . | /
COC(=O)c1ccc(-n2c(C)cc(C(=O)COC(=O)C3=COCCO3)c2C)cc1 | . | . | . | . | . | .
CNC[C@H]1OCCCC[C@H](C)Oc2ccc(NS(=O)(=O)c3ccc(C)cc3)cc2C(=O)N([C@H](C)CO)C[C@@H]1C | . | / | / | . | / | .
NC(=NCc1ccco1)NC(=O)c1ccc(Cl)cc1 | . | 92 | . | . | . | /
CN1CCN(C(=O)C[C@@H]2C=C[C@@H](NC(=O)c3ccc4c(c3)OCO4)[C@H](CO)O2)CC1 | . | / | / | / | / | .
CCN(CC)c1cc(C)c(C#N)c2nc3ccccc3n12 | . | . | 36 | . | . | .
CCc1c(C)c(C#N)c2nc3ccccc3n2c1NC | / | . | . | / | . | /
Cc1c(CCCl)c(Cl)n2c(nc3ccccc32)c1C#N | / | . | . | / | 97 | /
Cc1cc(Cl)n2c(nc3ccccc32)c1C#N | / | . | . | / | 81 | /
Cc1ccc2nc(-c3ccc(NC(=O)CN4CCN(c5ccccn5)CC4)cc3)sc2c1 | . | / | 36 | . | / | .
Cc1ccc2nc(NC(=O)CN3CCN(c4ccccn4)CC3)sc2c1 | . | . | . | . | . | .
CCC1(c2ccc(F)cc2)NC(=O)N(CC(=O)Nc2ccc(-c3nc4ccc(C)cc4s3)cc2)C1=O (stereo not given) | / | . | . | 271 | . | .
C[C@@H]1CN([C@H](C)CO)S(=O)(=O)c2ccc(C#CC3CC3)cc2O[C@@H]1CN(C)C(=O)c1cnccn1 | . | / | / | . | / | .
Cc1ccc(C)c(Nc2nc(N)c3ccccc3n2)c1 | . | . | 33 | . | . | /
COc1ccc(C)cc1Nc1nc(N)c2cc(OC)c(OC)cc2n1 | . | . | / | / | 74 | .
SMILES | PGC1a acetyl inh | MITF TRPM1 HTS | Wnt act | miR-122 sensor | MITF TRPM1 inh | UUG fidelity
COc1ccc(Cl)cc1Nc1nc(N)c2ccccc2n1 | . | / | . | . | . | .
CN1CCN(C(=O)C[C@H]2CC[C@@H](NC(=O)c3ccc4c(c3)OCO4)[C@@H](CO)O2)CC1 | . | / | / | . | / | /
CCC(=O)Nc1ccc2c(c1)C(=O)N(C)C[C@H](OC)[C@@H](C)CN(C(=O)C1CC1)[C@H](C)CO2 | . | / | / | / | / | .
COc1ccc(/C=C/C(=O)Nc2ccc(OC)nc2)cc1 | . | . | . | . | . | .
COc1ccc(CS(=O)(=O)/C(Cl)=C(/Cl)C(=O)Nc2ccc(OC)nc2)cc1 | . | . | / | . | 94 | .
COc1ccc(NC(=O)/C(Cl)=C(/Cl)S(=O)Cc2ccccc2)cn1 (stereo not given) | 71 | . | / | . | 104 | /
C[C@@H]1CN([C@H](C)CO)C(=O)Cc2cc(NC(=O)Nc3ccc4c(c3)OCO4)ccc2O[C@@H]1CN(C)Cc1ccc(C(F)(F)F)cc1 | . | / | / | . | / | .
COc1ccc(S(=O)(=O)N2CC[C@@H]3[C@@H](CO)N(C)c4ccc(-c5ccc(F)cc5)cc4[C@@H]32)cc1 | . | / | / | 196[16.7 µM] | / | .
COc1ccc(-c2ccc3c(c2)[C@H]2[C@H](CCN2S(=O)(=O)c2ccc(F)cc2)[C@H](CO)N3C)cc1 | . | / | / | / | / | /
